Test results reported in patent EP4711372A1, “CRYSTAL FORM OF HETEROCYCLIC COMPOUND, SALT THEREOF, CRYSTAL FORM OF SALT THEREOF, AND USE” (Hubei Bio-Pharmaceutical Industrial Technological Institute …, priority 2023, dated 2024).

Test: Solid-state stability evaluation test (XRPD and HPLC)
Assay type: physicochemical
Settings: peak at RRT 1.00 (compound represented by formula I-3B)
Experimental: The purity test, dynamic solubility test, and stability test in the assay were performed using an ultra-performance liquid chromatograph (UPLC).
Samples of the crystal form A of the compound represented by formula I-3B, the crystal form B of the compound represented by formula I-3B, the crystal form of the fumarate complex of the compound represented by formula I-3B, and the crystal form of the tartrate salt of the compound represented by formula I-3B were placed under conditions of 60°C/closed/1 day, 25°C/60% RH/open/1 week, and 40°C/75% RH/open/1 week, respectively. Their physical and chemical stability were evaluated by XRPD and HPLC.

- HPLC purity (25°C/60% RH/open/1 week): 99.68 area%
- HPLC purity (40°C/75% RH/open/1 week): 99.68 area%
- HPLC purity (60°C/closed/1 day): 99.68 area%
- HPLC purity (Onset): 99.68 area%
Compound: Cn1nc2cc(N3C[C@H]4C[C@H]4c4cc(C(=O)N5CCC(F)(F)CC5)cnc43)ccn2c1=O
